Protein sequences, listed by entry. Tags and fused reporters are not part of them. Residues count along the entry.
UniProt O00482, 299-541: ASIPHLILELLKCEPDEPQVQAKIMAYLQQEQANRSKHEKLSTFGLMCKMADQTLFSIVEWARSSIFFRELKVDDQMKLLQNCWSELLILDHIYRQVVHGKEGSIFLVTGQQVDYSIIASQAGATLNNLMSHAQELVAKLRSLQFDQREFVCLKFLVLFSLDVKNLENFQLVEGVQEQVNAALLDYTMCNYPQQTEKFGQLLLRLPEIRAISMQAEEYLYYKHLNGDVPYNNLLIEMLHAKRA
UniProt O00482, whole entry: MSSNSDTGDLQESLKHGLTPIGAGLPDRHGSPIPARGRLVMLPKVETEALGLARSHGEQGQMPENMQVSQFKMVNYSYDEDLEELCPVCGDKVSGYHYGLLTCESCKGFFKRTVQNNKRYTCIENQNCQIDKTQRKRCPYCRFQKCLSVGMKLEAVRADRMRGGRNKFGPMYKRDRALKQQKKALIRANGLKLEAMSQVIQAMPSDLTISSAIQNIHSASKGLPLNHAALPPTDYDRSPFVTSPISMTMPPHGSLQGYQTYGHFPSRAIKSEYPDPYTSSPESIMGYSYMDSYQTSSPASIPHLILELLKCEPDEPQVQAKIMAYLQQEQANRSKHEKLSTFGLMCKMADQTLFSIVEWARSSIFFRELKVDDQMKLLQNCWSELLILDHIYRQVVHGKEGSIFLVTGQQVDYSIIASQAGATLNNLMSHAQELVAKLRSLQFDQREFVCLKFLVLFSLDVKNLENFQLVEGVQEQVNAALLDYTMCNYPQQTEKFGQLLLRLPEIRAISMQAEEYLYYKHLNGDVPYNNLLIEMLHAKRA

In patent US12415770B2, “Modulators of liver receptor homologue 1 (LRH-1) and uses” (Emory University, priority 2017, dated 2025):

Tests used:
LRH-1 LBD = molecular target: T1, LRH-1 LBD (Homo sapiens, UniProt O00482); assay: Thermofluor (DSF) assay, purified LRH-1 LBD-His protein; assay type: binding; details: 50 μM compound; relative to DLPC-bound LRH-1; read-out: ΔTm (mean +/− SEM) (° C.)
T1 construct: LRH-1 LBD (residues 299-541) in the pMSC7 vector was expressed in BL21 (DE3) pLysS E. coli; made in house; host or cells: E. coli BL21 (DE3) pLysS
Protocol: Thermofluor assays—Purified LRH-1 LBD-His protein (0.2 mg/ml) was incubated overnight with 50 μM of each compound at 4° C. The final DMSO concentration in the reactions was 1%. SYPRO orange dye (Invitrogen) was then added at a 1:1000 dilution. Reactions were heated at a rate of 0.5° C. per minute, using a StepOne Plus Real Time PCR System (ThermoFisher). […] Data were analyzed by first subtracting baseline fluorescence (ligands+SYPRO with no protein) and then fitting the curves using the Bolzman equation (GraphPad Prism, v6) to determine the Tm. […]

LRH-1 = molecular target: T2, LRH-1 (Homo sapiens, UniProt O00482); assay: Luciferase reporter assay (SHP-luc) in HeLa cells transfected with full-length LRH-1; assay type: cell-based; details: for EC50 (μM): HeLa cells, SHP-luc reporter, 24 hours, 0.03-30 μM
T2 construct: The transfected plasmids included full-length LRH-1 in a pCI vector; expressed in transfected cells; host or cells: HeLa
Protocol: EC50 and Relative Activity values were calculated from luciferase reporter assays.

Row | Structure (SMILES) | ΔTm at 50 µM (LRH-1 LBD) [°C] | EC50 (μM) (LRH-1) | Relative Efficacy (LRH-1; fold increase over baseline (DMSO-treated cells) relative to the fold increase induced by RJW100)
1 | C=C(Cc1ccccc1)[C@@]12CC[C@@H](O)C1CC(CCCCCC)=C2c1ccccc1 (mixture of isomers) [Compound 24, (Exo)-5-hexyl-4-phenyl-3a-(3-phenylprop-1-en-2-yl)-1,2,3,3a,6,6a-hexahydropentalen-1-ol] | -3.1 | cnc | −0.14
2 | CCCCCCC1=C(c2ccccc2)[C@]2(Cc3ccccc3)CC[C@@H](O)C2C1 (mixture of isomers) [Compound 26-exo, (Exo)-3a-benzyl-5-hexyl-4-phenyl-1,2,3,3a,6,6a-hexahydropentalen-1-ol] | 1.4 |  | 
3 | CCCCCCC1=C(c2ccccc2)[C@]2(C(=O)c3ccccc3)CC[C@@H](O)C2C1 (stereo partly drawn) [Compound 25-exo] | 1 |  | 
4 | C=C(c1ccccc1)[C@@]12CC[C@H](n3ccnn3)C1CC(CCCCCC)=C2c1ccccc1 (stereo partly drawn) [Compound 34-endo, (Endo or Exo) 5-hexyl-4-phenyl-3a-(1-phenylvinyl)-1,2,3,3a,6,6a-hexahydropentalen-1-yl)-1H-1,2,3-triazole] | 3.6 |  | 
5 | C=C(c1ccccc1)[C@@]12CC[C@@H](n3ccnn3)C1CC(CCCCCC)=C2c1ccccc1 (stereo partly drawn) [Compound 34-exo, (Endo or Exo) 5-hexyl-4-phenyl-3a-(1-phenylvinyl)-1,2,3,3a,6,6a-hexahydropentalen-1-yl)-1H-1,2,3-triazole] | 0.6 | cnc | 
